From patent US5204327A, “Treatment of cerebral edema with ANP pharmaceutical compositions” (Ashi Kasei Kogyo Kabushiki Kaisha, priority 1988, dated 1993) come the findings set out here.

The subject of the series is rats. The experiment in a line: 14-day toxicity in rats by intravenous administration. It is filed as in vivo, Crj:CD (SD) SPF rats. The protocol:
Peptide (II) having a purity of 98.3% which was obtained in Reference Example 1 was dissolved in a physiological saline to prepare three preparations having the peptide (II) concentrations of 0.025 mg/ml, 0.075 mg/ml and 0.25 mg/ml, respectively. As a control, the physiological saline was used.
100 Crj:CD (SD) SPF rats of 4 weeks old of both sexes (50 male rats and 50 female rats) were purchased from Charles River Japan, Inc., Japan. 40 Rats of each sex (males weighing 102.4 to 114.6 g and females weighing 92.9 to 104.2 g) which were healthy and in good conditions in respect of both the clinical signs and the body weight gain during about one-week observation period for the quarantine and the acclimation were selected and used for the following experiment.
The rats were divided at random into four groups each consisting of 10 male rats and 10 female rats. Three of the four groups are used for the treatment with peptide (II).
Each of the above-prepared three test drug solutions containing peptide (II) at concentrations of 0.025 mg/ml, 0.075 mg/ml and 0.25 mg/ml, respectively, was individually administered to the rats of the three groups at a dosage of 0.2 ml/100 g of body weight. That is, the peptide was administered to the rats of the three groups at dosages of 0.05 mg/kg, 0.15 mg/kg and 0.5 mg/kg of body weight, respectively. To the rats of the remaining group, physiological saline was administered as a control at a dosage of 0.2 ml/100 g of body weight. The administration of each of the test drug solutions and the physiological saline was conducted daily for 14 days through the tail vein of each rat (with the weekly alteration between the left side and right side tail veins) at an administration rate of 0.5 ml/sec (once a day at a time between 1:00 p.m. and 3:00 p.m.).
Each rat was observed 4 times a day to examine whether or not it was dead and/or any remarkable changes in clinical signs had occurred. The results were recorded.
The amounts of the food supplied and the food remaining were measured by means of a balance twice a week during the administration period, and the daily food consumption per animal was calculated.
The amount of water consumption was measured once a week during the administration period.
The individual body weight was measured on the first day of the administration and then twice a week during the administration period.
Each of the male and female rats of the control group and the highest dosage group (0.5 mg/kg of body weight) were subjected to examination of bilateral fundus oculi on the 11th administration day.
Samples of abdominal aorta blood were obtained from all of the rats on the day after the 14th administration day under ether anesthesia. One ml of each blood sample was transferred to an EDTA 2K tube (manufactured and sold by Toa Medical Electronics Co., Japan) and examined with respect to the following parameters using an automatic blood cell counter CC-108 (manufactured and sold by Toa Medical Electronics Co., Japan), automatic platelet counter PL-100 (manufactured and sold by Toa Medical Electronics Co., Japan) and automatic hemoglobinmeter HB-100 (manufactured and sold by Toa Medical Electronics Co., Japan): TE-400 (manufactured and sold by Erma Optical Works Ltd., Japan):
Samples of abdominal aorta blood were obtained from all of the rats on the day after the 14th administration day under ether anesthesia. An aliquot (one ml) of each blood sample was immediately transferred to a heparin-coated tube. Within ten minutes, the samples were centrifuged at 1000G at 4° C. for two minutes and the plasma was separated for analyses of lactate dehydrogenase, sodium, potassium and chloride. On the other hand, another aliquot (ten ml) of each blood sample was centrifuged at 1350G at 4° C. for 10 minutes after keeping it stand still for 15 to 90 minutes, to thereby obtain serum. Each serum was separated for analyses of the other parameters shown below. […]

Where [1] appears, read: i.v. daily for 14 days, 0.05, 0.15 and 0.5 mg/kg.

As for `CC[C@H](C)[C@@H]1NC(=O)[C@H](CCCNC(=N)N)NC(=O)[C@H](CC(=O)O)NC(=O)[C@H]([C@@H](C)CC)NC(=O)[C@H](CCCNC(=N)N)NC(=O)CNC(=O)CNC(=O)[C@H](Cc2ccccc2)NC(=O)[C@@H](NC(=O)[C@H](CO)NC(=O)[C@H](CO)NC(=O)[C@H](CCCNC(=N)N)NC(=O)[C@H](CCCNC(=N)N)NC(=O)[C@H](CC(C)C)NC(=O)[C@@H](N)CO)CSSC[C@@H](C(=O)N[C@@H](CC(N)=O)C(=O)N[C@@H](CO)C(=O)N[C@@H](Cc2ccccc2)C(=O)N[C@@H](CCCNC(=N)N)C(=O)N[C@@H](Cc2ccc(O)cc2)C(=O)O)NC(=O)CNC(=O)[C@H](CC(C)C)NC(=O)CNC(=O)[C@H](CO)NC(=O)[C@H](CCC(N)=O)NC(=O)[C@H](C)NC(=O)CNC1=O` [Peptide (II)], under setting [1], the Blood biochemical examination entry was “No remarkable change”, the “Change in body weight” value is on record as “No remarkable change”, the Clinical signs result is recorded as “No remarkable change” and the “Clinical signs: death of animals” value was “No dead animal”. Further, under setting [1], the Food consumption entry is “No remarkable change”, the Hematological examination entry is “No remarkable change”, the Histopathological examination result is on record as “No remarkable change” and the “Measurement of organ weight” value is listed as “No remarkable change”. Further, under setting [1], the Patho-anatomical examination entry is “No remarkable change”, the “Urinalysis (24-hour urine volume)” value was “No remarkable change” and the Water consumption entry was “No remarkable change”. For the same molecule, the Ophthalmic examination entry (i.v. daily, highest dosage group 0.5 mg/kg, 11th administration day) is reported as “No remarkable change”.
